Measured values: patent US20230312722A1 (NONA BIOSCIENCES SUZHOU, published 2023)

The chains behind the UniProt entries cited, without tags or fusion partners. Residues count along the entry.
UniProt P07766, 23-207 limits assumed, chain 1 of 3: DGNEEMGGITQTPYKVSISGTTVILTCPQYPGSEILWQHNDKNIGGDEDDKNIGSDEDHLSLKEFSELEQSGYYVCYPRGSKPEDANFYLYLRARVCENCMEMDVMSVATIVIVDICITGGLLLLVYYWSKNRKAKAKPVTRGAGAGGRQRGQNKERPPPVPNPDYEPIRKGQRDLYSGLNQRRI
CD3 on human T cells, UniProt P04234, 22-171 limits assumed, chain 2 of 3: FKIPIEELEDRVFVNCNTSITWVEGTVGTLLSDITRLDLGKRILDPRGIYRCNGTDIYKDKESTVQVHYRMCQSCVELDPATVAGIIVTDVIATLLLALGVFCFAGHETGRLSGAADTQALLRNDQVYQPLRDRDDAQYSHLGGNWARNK
CD3 on human T cells, UniProt P09693, 23-182 limits assumed, chain 3 of 3: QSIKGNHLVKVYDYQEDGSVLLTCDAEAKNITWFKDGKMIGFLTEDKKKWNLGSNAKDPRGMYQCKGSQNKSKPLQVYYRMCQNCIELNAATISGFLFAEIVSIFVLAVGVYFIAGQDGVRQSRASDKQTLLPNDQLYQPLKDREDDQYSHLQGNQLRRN

How the values were obtained:
[1] = target: T1, human B7H4 on the cell surface (human, UniProt Q7Z7D3 25-282); experiment: FACS on SK-BR-3 cells
T1 construct: whole, on cells; also called CHOK1/hu B7H4; B7H4 on SK-BR-3
T1 sequence (looked up): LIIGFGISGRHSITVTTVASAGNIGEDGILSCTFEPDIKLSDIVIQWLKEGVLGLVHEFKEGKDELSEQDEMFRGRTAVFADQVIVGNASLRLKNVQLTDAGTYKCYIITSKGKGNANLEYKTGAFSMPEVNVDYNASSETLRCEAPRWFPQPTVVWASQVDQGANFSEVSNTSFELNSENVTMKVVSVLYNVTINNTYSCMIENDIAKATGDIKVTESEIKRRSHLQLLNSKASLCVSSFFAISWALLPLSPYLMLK
Description: (§1) SK-BR-3 cells were digested. T cells were isolated using the human T cell isolation kit (Miltenyi, #130-096-535) as described in the method of the instruction, and resuspended with PBS containing 2% BSA. The cell density was adjusted to 1×10⁶ cells/mL. The cells were seeded in a 96-well V-bottom plate (Corning, #3894) at 100 μL/well, followed by the addition of test antibodies diluted in a 3-fold gradient at a concentration that was 2 times the final concentration, each at 100 μL/well. The cells were incubated at 4° C. for 2 h away from light. Thereafter, the cells in each well were rinsed twice with 100 μL of pre-cooled PBS containing 2% BSA, and centrifuged at 500 g at 4° C. for 5 min, and then the supernatant was discarded. Then each well was added with 100 μL of fluorescent secondary antibody (Alexa Fluor 488-conjugated AffiniPure Goat Anti-Human IgG, Fcγ Fragment Specific, Jackson, #109-545-098, diluted in a 1:500 ratio), and the plate was incubated away from light at 4° C. for 1 h. The cells in each well were washed twice with 100 μL of pre-cooled PBS containing 2% BSA, and centrifuged at 500 g at 4° C. for 5 minutes, and then the supernatant was discarded. Finally, the cells in each well were resuspended with 200 μL of pre-cooled PBS containing 2% BSA, and the fluorescence signal values were read using an ACEA Novocyte3000 flow cytometer.

[2] = target: CD3 on human T cells (human, UniProt P07766 23-207; P04234 22-171; P09693 23-182); experiment: FACS on human T cells; EC50 printed as n.d., curve still rising at 100 nM
Description: as §1

B1: PR002852 (bispecific antibody, human IgG1, kappa, L234A L235A)
light: not shown
heavy: not shown
chain: QAVVTQEPSLTVSPGGTVTLTCRSSTGAVTTSNYANWVQQKPGQAPRGLIGGTNKRAPWTPARFSGSLLGDKAALTLLGAQPEDEAEYFCALWYSNLWVFGGGTKLTVLGGGQSGQGGSGGGGSEVQLVESGGGLVQPGGSLKLSCAASGFTFNTYAMNWVRQASGKGLEWVGRIRSKYNNYATYYADSVKDRFTISRDDSKSTLYLQMNSLKTEDTAVYYCVRHGNFGNSYVSWFAYWGQGTLVTVSSASEPKSSDKTHTCPPCPAPEAAGGPSVFLFPPKPKDTLMISRTPEVTCVVVDVSHEDPEVKFNWYVDGVEVHNAKTKPREEQYNSTYRVVSVLTVLHQDWLNGKEYKCKVSNKALGAPIEKTISKAKGQPREPQVYTLPPCREEMTKNQVSLWCLVKGFYPSDIAVEWESNGQPENNYKTTPPVLDSDGSFFLYSKLTVDKSRWQQGNVFSCSVMHEALHNHYTQKSLSLSPGK
- EC50 [1]: 32.2 nM
- Maximum MFI [1]: 154000
- Maximum MFI [2]: 145000

B2: PR002858 (bispecific antibody, human IgG1, kappa, lambda, L234A L235A)
chain 1: EVQLLESGGGLVQPGGSLRLSCAASGFTFSTYAMNWVRQAPGKGLEWVSRIRSKYNNYATYYADSVKDRFTISRDDSKSTLYLQMNSLRAEDTAVYYCVRHGNFGNSYVSWFAYWGQGTLVTVSSASTKGPSVFPLAPSSKSTSGGTAALGCLVKDYFPEPVTVSWNSGALTSGVHTFPAVLQSSGLYSLSSVVTVPSSSLGTQTYICNVNHKPSNTKVDKKVEPKSC
chain 2: QAVVTQEPSLTVSPGGTVTLTCRSSTGAVTTSNYANWVQQKPGQAPRGLIGGTNKRAPWTPARFSGSLLGDKAALTLLGAQPEDEAEYFCALWYSNLWVFGGGTKLTVLGQPKAAPSVTLFPPSSEELQANKATLVCLISDFYPGAVTVAWKADSSPVKAGVETTTPSKQSNNKYAASSYLSLTPEQWKSHRSYSCQVTHEGSTVEKTVAPTECSDKTHTCPPCPAPEAAGGPSVFLFPPKPKDTLMISRTPEVTCVVVDVSHEDPEVKFNWYVDGVEVHNAKTKPREEQYNSTYRVVSVLTVLHQDWLNGKEYKCKVSNKALGAPIEKTISKAKGQPREPQVYTLPPCREEMTKNQVSLWCLVKGFYPSDIAVEWESNGQPENNYKTTPPVLDSDGSFFLYSKLTVDKSRWQQGNVFSCSVMHEALHNHYTQKSLSLSPGK
heavy: not shown
light: not shown
- EC50 [1]: 67.8 nM
- Maximum MFI [1]: 153000
- Maximum MFI [2]: 174000
